The subject of this series is Wistar rats. Briefly: Catalepsy (CAT) measurements on inclined grid in rats. To be noted: idazoxan 1.5 mg/kg s.c.; for CAT rating ± semi-interquartile range: score 0-5, 8 animals per group.

The structures appear in SMILES notation.

As for `Cc1cc2c(s1)Nc1ccccc1N=C2N1CCN(C)CC1` [olanzapine], the “CAT rating ± semi-interquartile range” value (0.5 hrs after olanzapine 2.5 mg/kg i.p.) is reported as 1 ± 2.0, the “CAT rating ± semi-interquartile range” value (1 hr after olanzapine 2.5 mg/kg i.p.) is recorded as 1.5 ± 2.0 and the “CAT rating ± semi-interquartile range” value (2 hrs after olanzapine 2.5 mg/kg i.p.) amounted to 1 ± 0.5. Moreover, the “Catalepsy compared to vehicle treated controls (in words)” value (olanzapine 2.5 mg/kg i.p., alone or in combination) was “did not produce any significant catalepsy”.

Values taken from patent publication US20060281735A1, “Antipsychotic combination therapies and compositions of an alpha-2 adrenergic receptor antagonist and an atypical antipsychotic neuroleptic” (priority 2002, published 2006).
